Results on 5 molecules are retold here after ChEMBL document CHEMBL4513216, “Probing the Open Global Health Chemical Diversity Library for Multistage-Active Starting Points for Next-Generation Antimalarials” (ACS Infect Dis, 2020).

The data set relates to HepG2. Put plainly: Toxicity liver stage against HepG2, at 10uM. As to conditions: human, hepg2, 10 µM. Also on record: test concentration 10 uM, cell line HepG2-A16-CD81EGFP. It counts as cell-based. In outline:
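Uninfected HepG2-A16-CD81EGFP cells, 3 × 10^3 per well, 1536-well, plated on prespotted compound at 10 μM final, parasite-free screening media added to match infected plates; puromycin 10 μM positive, DMSO 0.5% negative; run in parallel with 48 h PbLuc assay at 37 °C, 5% CO2; viability by CellTiter-Glo luminescence, normalized to controls.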

Only a part of the results on these compounds is given; other tests are left out.

For `Cc1ccccc1NC1CCNCC1`, the INHIBITION was 1.97%.

With `Cc1ccc(NC2CCN(C(C)c3nnc(C)o3)CC2)cc1` (stereo not given), the INHIBITION came out at 2.65%.

Take `Cc1cccc(NC2CCN(Cc3nnc(C(C)C)o3)CC2)c1`: the INHIBITION is -9.35%.

Consider `CCN1CCC(Nc2ccc(OC)c(OC)c2)CC1`, for which the INHIBITION is -2.46%.

Consider `COc1ccc(NC2CCN(C)CC2)cc1OC`, for which the INHIBITION was -0.628%.
